Sequences of proteins named here, by UniProt entry; tags and fusion partners are left off. A line that says so, or that is headed by a name, gives the form on record, which may keep a tag or linker.
UniProt P36544, with tags, fused parts or gaps L131G/Q139L/Y217F: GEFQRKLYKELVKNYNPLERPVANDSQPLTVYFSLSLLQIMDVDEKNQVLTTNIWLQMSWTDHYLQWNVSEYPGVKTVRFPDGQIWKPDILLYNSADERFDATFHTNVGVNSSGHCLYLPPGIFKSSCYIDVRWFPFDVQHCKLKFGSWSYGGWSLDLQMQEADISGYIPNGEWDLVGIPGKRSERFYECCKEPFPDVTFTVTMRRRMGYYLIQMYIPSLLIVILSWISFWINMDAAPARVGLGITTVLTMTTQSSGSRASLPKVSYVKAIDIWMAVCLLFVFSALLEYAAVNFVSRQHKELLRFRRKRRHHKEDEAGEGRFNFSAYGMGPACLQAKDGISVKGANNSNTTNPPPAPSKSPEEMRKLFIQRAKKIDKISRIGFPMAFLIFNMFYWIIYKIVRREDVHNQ

In patent US20240390521A1, “CHIMERIC MODIFIED ION CHANNELS AND USES THEREOF FOR TREATMENT OF TRIGEMINAL NERVE DISORDERS” (Kriya Therapeutics, Inc., priority 2023, published 2024):

Biological target: α7^L131G, Q139L, Y217F-GlyR LGIC (Homo sapiens, UniProt P36544, L131G/Q139L/Y217F)
Test: Agonist potency at the modified chimeric LGIC
Assay type: cell-based

`c1cnc2cc3c(cc2n1)[C@@H]1CNC[C@H]3C1` [varenicline, 6,10-Methano-6H-pyrazino[2,3-h][3]benzazepine, 7,8,9,10-tetrahydro-5,8,14-triazatetracyclo[10.3.1.02,11.04,9]hexadeca-2,4,6,8,10-pentaene tartrate salt] showed an EC50 of 1.6 ± 0.1 nM and an EC50 (read-out: EC50 of varenicline for α7^L131G, Q139L, Y217F-GlyR LGIC (m-α7-GlyR LGIC)) of 1.6 nM.

Counter-ions that a name gives are not always drawn. Like-named read-outs stand apart in the source and are kept apart here.
